Test results: patent US20030158199A1, “Novel compounds for inhibition of Tie-2” (KYLIX, B.V., priority 2002, published 2003)

The chains behind the UniProt entries cited, without tags or fusion partners. Residues count along the entry.
UniProt Q02763, 771-1124 limits assumed: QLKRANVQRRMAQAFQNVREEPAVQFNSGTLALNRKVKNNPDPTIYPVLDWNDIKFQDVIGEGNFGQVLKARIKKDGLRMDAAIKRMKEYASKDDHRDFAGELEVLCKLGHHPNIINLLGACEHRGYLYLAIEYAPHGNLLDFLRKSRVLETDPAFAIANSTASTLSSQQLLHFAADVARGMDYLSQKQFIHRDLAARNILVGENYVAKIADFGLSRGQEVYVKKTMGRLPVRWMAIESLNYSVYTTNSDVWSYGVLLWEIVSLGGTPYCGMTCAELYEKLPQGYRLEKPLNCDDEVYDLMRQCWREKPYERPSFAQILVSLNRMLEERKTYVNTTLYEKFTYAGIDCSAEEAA
UniProt P35968, 807-1356 limits assumed: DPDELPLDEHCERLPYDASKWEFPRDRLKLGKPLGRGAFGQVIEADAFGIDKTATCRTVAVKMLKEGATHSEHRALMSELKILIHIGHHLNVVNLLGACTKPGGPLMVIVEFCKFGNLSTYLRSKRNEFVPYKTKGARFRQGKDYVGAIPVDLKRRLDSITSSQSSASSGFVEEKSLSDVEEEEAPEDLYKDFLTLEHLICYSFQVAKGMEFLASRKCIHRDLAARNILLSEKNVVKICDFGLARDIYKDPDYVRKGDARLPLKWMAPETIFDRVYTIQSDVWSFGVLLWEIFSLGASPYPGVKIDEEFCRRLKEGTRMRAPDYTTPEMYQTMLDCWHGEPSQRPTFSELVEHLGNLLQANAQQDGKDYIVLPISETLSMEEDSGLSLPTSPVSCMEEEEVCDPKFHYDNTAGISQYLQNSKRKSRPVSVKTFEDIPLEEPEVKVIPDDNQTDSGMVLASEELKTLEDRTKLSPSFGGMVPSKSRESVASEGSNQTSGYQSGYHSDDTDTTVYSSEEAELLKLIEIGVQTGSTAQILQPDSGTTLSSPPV
UniProt P08581, 956-1390 limits assumed: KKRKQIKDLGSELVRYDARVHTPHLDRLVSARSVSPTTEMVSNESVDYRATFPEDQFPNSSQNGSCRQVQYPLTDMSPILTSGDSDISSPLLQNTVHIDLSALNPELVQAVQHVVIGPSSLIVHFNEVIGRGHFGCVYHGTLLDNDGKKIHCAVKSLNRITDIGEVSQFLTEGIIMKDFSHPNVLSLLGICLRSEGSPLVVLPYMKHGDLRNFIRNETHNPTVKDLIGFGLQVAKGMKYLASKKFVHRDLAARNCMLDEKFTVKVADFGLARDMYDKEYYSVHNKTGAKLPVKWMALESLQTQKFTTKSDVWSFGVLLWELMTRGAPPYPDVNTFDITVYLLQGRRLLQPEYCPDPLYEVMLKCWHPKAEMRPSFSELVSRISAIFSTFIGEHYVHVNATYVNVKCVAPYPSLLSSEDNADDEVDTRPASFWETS

Tests used:
[1] = molecular target: Tie-2 (Homo sapiens, UniProt Q02763); assay: RTK ELISA, recombinant kinase domain, Tie-2; settings: read-out: IC50 Tie-2, GST-Tie2/Tek (aa 771-1124) expressed in baculovirus infected insect cells, tested form: HBr
Protocol: (§1) Follwing IC50 values were determined in the RTK ELISA using recombinant kinase domains of receptor tyrosine kinases which were expressed in baculovirus infected insect cells.
(§2) Receptor Tyrosine Kinase Assay
(§3) The following in vitro assays are used to determine the ability of different compounds to inhibit the transfer of phosphate groups onto tyrosine residues of downstream substrates. The level of phosphorylation is measured by a monoclonal antibody which is specific for phosphorylated tyrosine residues in an enzyme-linked immunosorbent assay (ELISA).
(§4) The following recombinant kinases were expressed in baculovirus infected insect cells Sf9 and purchased from ProQuinase, Freiburg:
(§5) If not otherwise indicated all steps are performed at room temperature.
(§6) 1.) Coat wells of ELISA plate with […] Poly-Glu-Tyr 4:1 in 100 μl/well PBS buffer (137 mM NaCl, 3 mM KCl, 1.5 mM KH2PO4, 8.2 mM Na2HPO4) overnight at 4° C.
(§7) 2.) Wash 2 times for 5 min each with PBS+0.05% Tween20 […]
(§8) a) Add 5-30 ng/well kinase in 50 μl/well kinase buffer (100 mM HEPES pH 7.4, 100 mM NaCl, 0.1 mM Na3VO4) b) Add 25 μl/well compound (50 and 5 μM) in 5% DMSO c) Add 25 μl/well 100 μM ATP in 40 mM MnCl2
(§9) 4.) Wash 3 times for 5 min each with PBS+0.05% Tween20
(§10) 5.) Add anti phosphotyrosin antibody/HRP 1:10.000 in 100 μl/well PBS+0.05% Tween+0.1 BSA, incubate for 1 h […]
(§11) 8.) Detect chemoluminescence signals in Tecan Genios reader

[2] = molecular target: KDR (Homo sapiens, UniProt P35968); assay: RTK ELISA, recombinant kinase domain, KDR; settings: read-out: IC50 KDR, GST-KDR (aa807-1356) expressed in baculovirus infected insect cells, tested form: HBr
Protocol: as §1, §2, §3, §4, §5, §6, §7, §8, §9, §10, §11

[3] = molecular target: c-Met (Homo sapiens, UniProt P08581); assay: RTK ELISA, recombinant kinase domain, c-Met; settings: read-out: IC50 c-Met, GST-cMet (aa956-1390) expressed in baculovirus infected insect cells, tested form: HBr
Protocol: as §1, §2, §3, §4, §5, §6, §7, §8, §9, §10, §11

`c1cncc(-c2nc(-c3ccc(N4CCCC4)cc3)cs2)c1` was tested, and the IC50 [1] was under 1000 nM, the IC50 [2] was 1000 nM and the IC50 [3] was 3000 nM.
